An excerpt weighted towards active compounds, which were near 0.46% of everything screened.
HCMV UL50-53 inh – cytomegalovirus nuclear egress complex inhibition | inhibition, % (concentration not given with the values) | AID 1918969 | HTRF UL50-UL53 interaction, normalized percent inhibition | 190,000 compounds, 0.15% hits; in the data active = inhibition above about 27%, passing the limit was not always enough
GIV Gai3 FP – blocks GIV peptide binding to rat Galpha-i3; Galpha-i3/FITC-GIV peptide fluorescence polarization, 90 min; stronger effect = lower value; scaled: aluminum fluoride 0%, vehicle 100%; P08753; hit rate 0.42% among 210,000; AID 1224905; percent of control (FP), % (test concentration not listed);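 active = replicate mean at 85% of control or lower, very high polarization wells dropped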;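 also: wells of about 15 µL received 100 nL stock; the first replicate is given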
* = called active by the depositor; . = no result.

compound | GIV Gai3 FP | HCMV UL50-53 inh
COc1cc(C=C2C(=O)NC(=O)NC2=O)cc(Cl)c1OCCOc1cccc(C)c1 | 86 | 44*
COc1cc(C=C2C(=O)NC(=S)NC2=O)cc(Cl)c1OCCOc1ccccc1 | 91 | -13
COc1ccccc1OCCOc1c(Br)cc(C=C2C(=O)NC(=O)NC2=O)cc1OC | 104 | -1
COc1ccc(C(=O)Oc2c(Cl)cc(C=C3C(=O)NC(=O)NC3=O)cc2OC)cc1 | 103 | 49*
O=C1NC(=O)C(=Cc2cc(Cl)c(OC(=O)c3ccccc3)c(Cl)c2)C(=O)N1 | 108 | 5
CCCCNC(=O)Cn1c(=O)c(=O)n(C)c2ncccc21 | 103 | .
O=c1oc2cc(O)ccc2cc1-c1nnc(NC2CCCCC2)s1 | -31* | .
Cc1ccc(-c2csc(-c3cc4ccccc4oc3=O)n2)cc1C | 111 | .
COc1cccc2cc(-c3nnc(NC4CCCCC4)s3)c(=O)oc12 | 113 | .
O=c1oc2ccccc2cc1-c1nc(-c2cccs2)cs1 | 11* | .
O=c1oc2ccc3ccccc3c2cc1-c1nc(-c2cccs2)cs1 | 116 | .
O=c1oc2cc(O)ccc2cc1-c1nc(-c2ccc3ccccc3c2)cs1 | -29* | .
CCOc1ccc(C2C(N3C(=O)c4ccccc4C3=O)C(=O)N2c2ccc(C)c(C)c2)cc1 (stereo unspecified) | 112 | .
N=Nc1c(O)n(Cc2ccccc2)c2ccccc12 | . | -62
NC(=O)c1cc(S(=O)(=O)NCCC2=CCCCC2)cs1 | 104 | -8
COc1ccc(OCC(=O)NC(C)CCc2ccccc2)cc1 (stereo unspecified) | . | -25
COCC(=O)Oc1c(Sc2ccc(C)cc2)c(C)nn1-c1ccccc1 | . | -8
CCCCc1cc(=O)oc2c(CN(C)C)c(O)ccc12 | 106 | -30
CC[C@@]1(O)C(=O)OCc2c1cc1n(c2=O)Cc2cc3c(CN(C)C)c(O)ccc3nc2-1 | -6.9* | -69
N#Cc1c(S/C=C(\O)c2ccccc2)nc2c(c1C(F)(F)F)CCCC2 | -44* | -41

Random excerpt: 4 records from the list
compound | GIV Gai3 FP | HCMV UL50-53 inh
COc1ccc(OCC(=O)NC(C)CCc2ccccc2)cc1 (stereo unspecified) | . | -25
CCCCc1cc(=O)oc2c(CN(C)C)c(O)ccc12 | 106 | -30
CCOc1ccc(C2C(N3C(=O)c4ccccc4C3=O)C(=O)N2c2ccc(C)c(C)c2)cc1 (stereo unspecified) | 112 | .
CC[C@@]1(O)C(=O)OCc2c1cc1n(c2=O)Cc2cc3c(CN(C)C)c(O)ccc3nc2-1 | -6.9* | -69

The listing continues.
compound | GIV Gai3 FP | HCMV UL50-53 inh
N#Cc1c(N=CN2CCCCC2)nc2c(c1-c1ccccc1)CCCC2 | 101 | -23
CNc1nc2ccccn2c(=O)c1/C=C1\SC(=S)N(C)C1=O | 138 | .
Cc1ccc2nc(Sc3ccccc3)c(/C=C3\SC(=S)N(C)C3=O)c(=O)n2c1 | -36* | .
COC(=O)CN(C#N)c1nc(NCc2ccccc2)nc(OC)n1 | 110 | 54*
COC(=O)CN(C#N)c1nc(C)cc(C)n1 | 98 | 1
O=C1/C(=C/c2ccccc2)Oc2c1ccc(O)c2CN1CCOCC1 | 280 | -26
Cn1cccc1/C=C1\CC(c2ccccc2)C/C(=C\c2cccn2C)C1=O (stereo unspecified) | 203 | -22
O=C1/C(=C/c2cccs2)CN(Cc2ccccc2)C/C1=C\c1cccs1 | 107 | -20
CC1C/C(=C/c2cccn2C)C(=O)/C(=C/c2cccn2C)C1 (stereo unspecified) | -75* | .
Cn1cccc1/C=C1\CN(Cc2ccccc2)C/C(=C\c2cccn2C)C1=O | -88* | -58
O=C(Cn1ncn2c(cc3ccccc32)c1=O)NCc1ccccc1 | 103 | -4
C1=C(c2ccccc2)Nc2ncnn2C1c1ccccc1 (stereo unspecified) | . | -16
COc1cc(C2C=C(c3cccs3)Nc3ncnn32)cc(OC)c1OC (stereo unspecified) | -0.1* | .
CCOc1ccc(C2Nc3c(C)cc(C)cc3[C@H]3OCCC[C@@H]23)cc1 (stereo partly specified) | 97 | .
COc1cc(OC)c(CNc2ccc3cn[nH]c3c2)cc1Br | 111 | -8
Brc1ccc(CNc2ccc3cn[nH]c3c2)s1 | 116 | 56*
CC(C)N1CCc2c(sc(N)c2C(N)=O)C1 | -67* | .
CC(C)N1CCc2c(sc(NC(=O)C3=COCCO3)c2C(N)=O)C1 | 278 | -63
CCN1CCCC1CNS(=O)(=O)c1ccc2c(c1)C(C)(C)CN2C(=O)C1CC1 (stereo unspecified) | 106 | .
COC(=O)c1c(NC(=O)CCC(=O)O)sc2c1CCCC2 | 102 | -6
COc1ccc(/C=c2/sc3nc(=O)cnn3c2=O)cc1 | 110 | .
Cc1ccc(/C=c2/sc3nc(=O)cnn3c2=O)cc1 | 92 | 72*
O=S(=O)(c1cccc2cccnc12)N1CCCN(Cc2c(F)cccc2Cl)CC1 | 100 | -13
Cc1ccccc1Nc1cc(N2CCCCC2)c2noc3c2c1C(=O)c1ccccc1-3 | 107 | .
CCNc1cc(N2CCC3(CC2)OCCO3)c2noc3c2c1C(=O)c1ccccc1-3 | 240 | -121
Cc1ccccc1Nc1cc(N2CCCC2)c2noc3c2c1C(=O)c1ccccc1-3 | 109 | .
CCNc1cc(N2CCOCC2)c2noc3c2c1C(=O)c1ccccc1-3 | -31* | -102
CC(C)Nc1cc(N2CCN(Cc3ccc4c(c3)OCO4)CC2)c2noc3c2c1C(=O)c1ccccc1-3 | -31* | -64
CC1CCN(c2cc(NC(C)C)c3c4c(onc24)-c2ccccc2C3=O)CC1 | -4.4* | -117
CC(C)Nc1cc(Br)c2noc3c2c1C(=O)c1ccccc1-3 | -55* | .
O=C1c2ccccc2-c2onc3c(Br)cc(NC4CCCCC4)c1c23 | 86 | -21
CSc1ccc(N=CN2C(=O)c3ccccc3C2=O)cc1 | . | -14
COc1ccc(CNC(=O)CCC(=O)Nc2nc(-c3cc4ccccc4oc3=O)cs2)cc1 | 110 | .
N#CC(C#N)=C(N)c1ccccc1 | . | -12
COC(=O)C(Cc1ccccc1)NC(=O)C1CC(=O)N(c2cccc(C)c2C)C1 (stereo unspecified) | . | -36
CCC(=O)Oc1c(Sc2ccc(C)cc2)c(C)nn1C(C)(C)C | 99 | .
CC(NC(=O)Oc1c(Cl)cc(Cl)c2ccccc12)(C(F)(F)F)C(F)(F)F | . | -22
O=C1C2ON(c3ccc(Cl)cc3)C(c3ccc(F)cc3)C2C(=O)N1Cc1ccccc1 (stereo unspecified) | 97 | .
O=C1c2ccccc2-c2onc3c(N4CCN(C5CCCCC5)CC4)cc(NCCO)c1c23 | 100 | -136
CC(C)CNc1cc(N2CCC(C)CC2)c2noc3c2c1C(=O)c1ccccc1-3 | 198 | -53

Among those listed so far, two have an NH in an aromatic ring.
compound | GIV Gai3 FP | HCMV UL50-53 inh
COc1cc(OC)c(CNc2ccc3cn[nH]c3c2)cc1Br | 111 | -8
Brc1ccc(CNc2ccc3cn[nH]c3c2)s1 | 116 | 56*

(further entries)
compound | GIV Gai3 FP | HCMV UL50-53 inh
CC1CCN(c2cc(NCc3ccccc3)c3c4c(onc24)-c2ccccc2C3=O)CC1 | -4.4* | -71
CN(C)CCCNc1cc(N2CCN(C3CCCCC3)CC2)c2noc3c2c1C(=O)c1ccccc1-3 | -7.2* | -151
COc1ccc(NC(=O)c2cccc(S(=O)(=O)N3CCCC3)c2)c(OC)c1 | . | 6
Cc1ccc(NC(=O)/C=C2\SC(=O)NC2=O)cc1 | 100 | -34
COc1ccc(C2CC(=O)C3=C(C2)Nc2ccccc2NC3c2cc([N+](=O)[O-])ccc2Cl)cc1 (stereo unspecified) | 106 | 41*
COc1ccc(C2CC(=O)C3=C(C2)Nc2ccccc2NC3c2ccccc2Br)cc1 (stereo unspecified) | 104 | -14
O=C(CSc1nnc2sc3ccccc3n12)N1CCOCC1 | . | -16
O=C(CSc1nc(C(F)(F)F)cc(=O)[nH]1)NCc1ccco1 | 109 | -1
N#C/C(=C\c1ccc(-c2ccc(C(=O)O)cc2)o1)c1nc2ccccc2[nH]1 | -6.1* | -26
N#C/C(=C\c1ccc(-c2ccc(Cl)c(C(=O)O)c2)o1)c1nc2ccccc2[nH]1 | -58* | -76
Cc1ccc2nc(/C(C#N)=C/c3ccc(-c4cccc(Cl)c4)o3)[nH]c2c1 | 243 | -51
N#C/C(=C/c1ccc(-c2ccc(C(=O)O)cc2)o1)c1ccc(Cl)cc1 | 113 | -92

Source: PubChem BioAssay
